In this experiment the test system is MDA-MB-231 cells. Nature of the experiment: MTT cell viability assay, MDA-MB-231 cells. Format: cell-based, human. Particulars: MDA-MB-231, 72 h, Olaparib 10 μM. How it is done: Following treatment, solutions were removed, thiazolyl blue tetrazolium bromide (MTT, 0.5 mg/mL) reagent was added to the cells, and plates were incubated for 4 h. The reduced purple formazan crystals were solubilized with 100 μL of DMSO, and the absorbance at 570 nm (620 nm as reference wavelength) was measured using a microplate reader. The average in percent reduction of cell viability was expressed relative to untreated control cells. The combinatorial effect was evaluated by the generation of the compound dose–response curve and a shift of the IC50 value in the presence or absence of Olaparib (graphed and calculated using GraphPad Prism software).
Background: Tetrazolium assays rely on reduction of a dye to a coloured formazan, in cell work by metabolically active cells.

Bounds are passed on as bounds.

Consider `O=c1c(O)c(-c2ccc(O)c(O)c2)oc2cc(O)cc(O)c12` [Quercetin, reference compound], for which the “fold shift = IC50 (−OLAP)/IC50 (+OLAP)” value is on record as >14.1.
